# Literature values as cited in US8445474B2 (Knopp Neurosciences, Inc., priority 2006, dated 2013).
# Test system: human subjects
# Settings: Mirapex product insert; cited from earlier work
compound,measurement,value
CCCN[C@H]1CCc2nc(N)sc2C1 [S(−) pramipexole],maximally tolerated dose for humans,4.5 mg/day
